From PubChem BioAssay AID624170 (National Center for Advancing Translational Sciences (NCATS), 2012)
Where “and” joins values, the source holds several entries; their conditions need not be identical. Equal entries are not always repeated. Only a part is listed here, and it is no random draw. Some results for these compounds are left out of this collection, so the calls shown say nothing about other tests. Records with an inconclusive call do not appear. Calls of active or inactive are those of the source. The call rests on the fitted dose curve; in most records, active means well fitted inhibition curve with a large enough effect; inconclusive means small, poorly fitted or top-dose-only effect, or another doubt; inactive means no such curve, though single readings can be large or run the other way.

The chains behind the UniProt entries cited, without tags or fusion partners.
UniProt O94925, whole entry: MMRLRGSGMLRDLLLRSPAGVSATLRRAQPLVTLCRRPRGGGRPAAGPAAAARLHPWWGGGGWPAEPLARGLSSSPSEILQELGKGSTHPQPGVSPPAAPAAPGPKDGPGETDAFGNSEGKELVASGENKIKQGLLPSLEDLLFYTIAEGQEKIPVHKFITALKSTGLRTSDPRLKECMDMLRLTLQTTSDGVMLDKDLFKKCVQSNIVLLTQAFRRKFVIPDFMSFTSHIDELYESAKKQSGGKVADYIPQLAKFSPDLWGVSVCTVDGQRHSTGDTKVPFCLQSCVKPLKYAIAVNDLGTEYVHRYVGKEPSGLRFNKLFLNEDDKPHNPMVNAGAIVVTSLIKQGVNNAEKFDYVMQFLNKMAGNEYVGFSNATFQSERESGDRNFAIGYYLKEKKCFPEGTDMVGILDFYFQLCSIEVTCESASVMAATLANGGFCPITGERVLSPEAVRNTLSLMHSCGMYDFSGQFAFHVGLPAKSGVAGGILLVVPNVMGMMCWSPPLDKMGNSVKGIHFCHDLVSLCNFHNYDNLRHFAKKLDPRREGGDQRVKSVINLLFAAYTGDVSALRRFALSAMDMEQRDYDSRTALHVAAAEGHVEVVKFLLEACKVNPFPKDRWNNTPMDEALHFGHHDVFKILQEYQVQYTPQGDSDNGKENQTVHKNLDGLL

Target: Glutaminase kidney isoform, mitochondrial (Homo sapiens) (UniProt O94925)
Assay: qHTS for Inhibitors of Glutaminase (GLS)
Settings: GLS enzymatic activity, qHTS titration; at 45.5 µM (top of the series)
On the % scale 0 is the no-effect control and ±100 the full control effect.

| Compound | activity change, negative = inhibition |
| --- | --- |
| CC(C)COc1ccc(C(=O)NCC2(N(C)C)CCCCC2)cc1 | inactive: -0.131% |
| COc1cccc(C(=O)NCC2(N3CCOCC3)CCCCC2)c1 | inactive: 2.96% |
| O=C(OC1CN2CCC1CC2)C(CO)(c1ccccc1)c1ccccc1 (stereo unspecified) | inactive: 8.13% |
| CC(C)Oc1ccc(C(=O)NCC2(N(C)C)CCCCC2)cc1 | inactive: 2.87% and inactive: 8.55% |
| O=C(OCCN1CCCC1)C(O)(c1ccccc1)c1ccccc1 | inactive: 7.22% |
| CN(C)c1cccc(C(=O)NCC2(N(C)C)CCCCC2)c1 | inactive: 21.6% |
| C=C(C)C#CC(O)(C(=O)OC1CCN(C)CC1)c1ccccc1 (stereo unspecified) | inactive: -30% |
| COc1cc(C(=O)NCC2(N(C)C)CCCCC2)cc(OC)c1OC | inactive: 19% |
| Cc1cccc(C(=O)NCC2(N(C)C)CCCCC2)c1 | inactive: 6.23% |
| COc1ccc(Br)c(C(=O)NCC2(N3CCCCC3)CCCCC2)c1 | inactive: -4.48% |
| COc1cc(C(=O)NCC2(N(C)C)CCCCC2)c([N+](=O)[O-])cc1OC | inactive: -10.8% |
| CN(C)C1(CNC(=O)c2ccc(Br)cc2)CCCCC1 | inactive: 13.9% |
| O=C(NCC1(N2CCCCC2)CCCCC1)c1cccc(Cl)c1 | inactive: 12.9% |
| COc1cccc(C(=O)NCC2(N3CCCCC3)CCCCC2)c1 | inactive: -3.41% |
| COc1ccc(C(=O)NCC2(N(C)C)CCCCC2)cc1Cl | inactive: 2.24% |
| CCCCOc1ccccc1C(=O)NCC1(N(C)C)CCCCC1 | inactive: 6.26% |
| CN1CCCC(OC(=O)C(O)(c2ccccc2)c2ccccc2)C1 (stereo unspecified) | inactive: 23.2% |
| CN(C)C1(CNC(=O)c2ccccc2[N+](=O)[O-])CCCCC1 | inactive: 4.8% |

| Compound | activity change, negative = inhibition |
| --- | --- |
| Cc1ccccc1C(=O)NCC1(N2CCCCC2)CCCCC1 | inactive: -1.05% |
| CN(C)C1CCCC1OC(=O)C(O)(c1ccccc1)c1ccccc1 (stereo unspecified) | inactive: 8.43% |
| CN(C)c1ccc(C(=O)NCC2(N(C)C)CCCCC2)cc1 | inactive: 18.3% |
| COc1ccc(C(=O)NCC2(N(C)C)CCCCC2)cc1 | inactive: 10.2% |
| CCOc1cccc(C(=O)NCC2(N(C)C)CCCCC2)c1 | inactive: 5.78% |
| Cc1cc(C(=O)NCC2(N3CCCCC3)CCCCC2)ccc1[N+](=O)[O-] | inactive: 9.03% |
| CCN1CCCC(OC(=O)C2(O)c3ccccc3C=Cc3ccccc32)C1 (stereo unspecified) | inactive: 6.04% |
| O=C(NCC1(N2CCCCC2)CCCCC1)c1cccc(Br)c1 | inactive: 2.35% |
| C=CCN1CCN(CCOC(=O)C(O)(c2ccccc2)c2ccccc2)CC1 | inactive: -2.99% |
| O=C(NCC1(N2CCCCC2)CCCCC1)c1cc(F)c(F)cc1Cl | inactive: -2.96% |
| CN1[C@@H]2CC[C@H]1CC(OC(=O)C(O)(c1ccccc1)c1ccccc1)C2 (stereo partly specified) | inactive: -3.39% |
| O=C(NCC1(N2CCCCC2)CCCCC1)c1cc([N+](=O)[O-])ccc1Cl | inactive: -11% |
| Cc1ccc(C(=O)NCC2(N3CCCCC3)CCCCC2)cc1 | inactive: -28.6% |
| CN(C)C1(CNC(=O)c2ccccc2F)CCCCC1 | inactive: 2.25% |
| CCN(CC)CC(C)C(C)OC(=O)C(O)(c1ccccc1)c1ccccc1 (stereo unspecified) | inactive: -4.27% |
| CN(C)C1(CNC(=O)c2cccc(Cl)c2)CCCCC1 | inactive: 24.4% |
| COc1cc(SC)ccc1C(=O)NCC1(N(C)C)CCCCC1 | inactive: -2.13% |
| CC(C)N1C(=O)CC2(CCN(CCOC(=O)C(O)(c3ccccc3)c3ccccc3)CC2)C1=O | inactive: 0.214% |
